The assay concerns the target Thioredoxin reductase 1, cytoplasmic (Rattus norvegicus) (UniProt O89049). Kind of assay: qHTS Assay for Substrates of Mammalian Selenoprotein Thioredoxin Reductase 1 (TrxR1): qHTS. Note: nearly all actives have a fitted effect of over 50% in size. As to conditions: purified TrxR1 substrate turnover, NADPH consumption readout; at 114 µM (top of the series) unless noted. On the technique in general: qHTS replaces the single test concentration by a dilution series.

Sequences of proteins named here, by UniProt entry; tags and fusion partners are left off.
UniProt O89049, whole entry, looked up: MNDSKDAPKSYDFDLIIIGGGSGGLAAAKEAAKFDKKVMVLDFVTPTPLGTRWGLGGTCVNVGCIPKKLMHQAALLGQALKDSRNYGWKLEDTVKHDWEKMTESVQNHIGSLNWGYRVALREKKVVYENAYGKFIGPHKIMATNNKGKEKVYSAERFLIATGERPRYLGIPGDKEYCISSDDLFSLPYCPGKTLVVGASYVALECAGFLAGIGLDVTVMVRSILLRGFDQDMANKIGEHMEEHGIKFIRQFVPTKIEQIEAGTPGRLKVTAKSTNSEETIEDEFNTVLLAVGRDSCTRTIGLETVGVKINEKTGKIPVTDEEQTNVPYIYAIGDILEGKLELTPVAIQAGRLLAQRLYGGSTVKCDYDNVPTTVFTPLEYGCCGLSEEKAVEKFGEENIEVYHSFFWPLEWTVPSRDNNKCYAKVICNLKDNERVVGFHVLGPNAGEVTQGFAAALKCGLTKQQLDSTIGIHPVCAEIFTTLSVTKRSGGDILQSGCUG

The list shows a part of the results, in another mix than the full data. Active and inactive are the calls of the source. Calls come from the whole dose curve; as a rule, active = well fitted inhibition curve with a large enough effect; inconclusive = small, poorly fitted or top-dose-only effect; inactive = no such curve, though single readings can be large or run the other way.
% is set by controls: 0 for no effect and ±100 for the full control effect.

As to `CCCOP(=S)(Nc1nc(N)cc(=O)[nH]1)OCCC`, the activity change, negative = substrate turnover was inactive: 0.358% [at 57.1 µM].
As for `Nc1cccc2c([As](=O)(O)O)cccc12`, the figure is inactive: -2.48% [at 57.1 µM]; as for `Cc1ccc(NCCc2c([N+](=O)[O-])cc([N+](=O)[O-])cc2[N+](=O)[O-])cc1`, inactive: -7.41%.
As to `COc1ccc2nc(NP(=O)(c3ccccc3)c3ccccc3)sc2c1`, the activity change, negative = substrate turnover was inactive: 5.3%.
To `COc1cc(I)ccc1[As](=O)(O)O` belongs inactive: 3.44%; to `O=P1(N(CCCl)CCCl)Nc2ccccc2N1`, inactive: 11.3% [at 57.1 µM]; to `O=P1(N(CCCl)CCCl)OCCCN1CCCl` (stereo not drawn), inactive: -6.02%.
To `O=C(OC1CN2CCC1CC2)C12CC3CC(CC(C3)C1)C2` (stereo not drawn) belongs inactive: 6.18%.
Consider `Cc1cc(=O)[nH]c(N[N+](=O)[O-])n1`, for which the activity change, negative = substrate turnover is inactive: -5.23%.
Take `Cc1c2c(nc3ccccc13)SC(C(Cl)Cl)C2` (stereo not drawn): the activity change, negative = substrate turnover is inactive: 3.18%.
With `COc1ccc(N/C(=N/P(=O)(N2CCOCC2)N2CCOCC2)N2CCOCC2)cc1`, the activity change, negative = substrate turnover was inactive: 8.13% [at 57.1 µM].
On to `O=[N+]([O-])c1cc(Oc2ccc([N+](=O)[O-])cc2C(F)(F)F)cc([N+](=O)[O-])c1`, for which the activity change, negative = substrate turnover is inactive: -2.26%.
Take `Cc1ccc2nc3c(c(C)c2c1)CC(C(Cl)Cl)S3` (stereo not drawn): the activity change, negative = substrate turnover is inactive: -21.5% [at 57.1 µM].
As for `Cc1ccc(OP(=O)(Nc2ccc([N+](=O)[O-])cn2)Oc2ccc(C)cc2)cc1`, the figure is inactive: -1.95%.
On to `ClCCN(CCCl)c1ccc(CC2C=CC=C2)cc1`, for which the activity change, negative = substrate turnover is inactive: 0.109%.
As for `C[As](=O)(O)c1cccc(C(=O)O)c1`, the figure is inactive: 26.5%.
In the case of `O=[As](O)(c1ccc(O)cc1)c1ccccc1O`, the activity change, negative = substrate turnover was inactive: 5.49%.
As for `O=[N+]([O-])c1ccc(-c2cc([N+](=O)[O-])c(O)c([N+](=O)[O-])c2)cc1`, the figure is inactive: -23.2%; as for `COc1cc(C(=O)NCC2(N3CCOCC3)CCCCC2)ccc1OCC(C)C`, inactive: -12.8%.
As for `CC(C)NC(=O)NP(=O)(Oc1ccccc1)Oc1ccccc1`, the activity change, negative = substrate turnover was inactive: -2.15% [at 57.1 µM].
Regarding `O=C(OC1CN2CCC1CC2)c1cccc2[nH]cnc12` (stereo not drawn), the activity change, negative = substrate turnover is inactive: 12.3% [at 57.1 µM].
As for `CCN(CC)C(=S)SC(NC=O)C(Cl)(Cl)Cl` (stereo not drawn), the figure is inactive: 7.39% [at 57.1 µM]; as for `O=[N+]([O-])c1cc([N+](=O)[O-])c(-c2ccn[nH]2)s1`, inactive: -3.22%.
As for `COC(=O)C1(C)COP(=O)(N2CCCCCC2)OC1` (stereo not drawn), the figure is inactive: 3.17% [at 57.1 µM]; as for `CC(C)c1ccc(OP(=O)(Nc2ccccn2)Oc2ccccc2F)cc1` (stereo not drawn), inactive: -0.0346%.
To `ClCCSc1nnc(-c2cccnc2)o1` belongs inactive: 8.63% [at 57.1 µM].
Turning to `O=Cc1ccc(NCCCl)cc1`, the activity change, negative = substrate turnover was inactive: -7.72%.
To `CCCCOc1ccc(C(=O)NCC2(N3CCCCC3)CCCCC2)cc1OC` belongs inactive: -8.44%.
To `Cc1cc(SC(NC(=O)c2ccccc2)C(Cl)(Cl)Cl)nc(C(C)C)n1` (stereo not drawn) belongs inactive: -9.04%; to `CC1CCNP(=O)(N(CCCl)CCCl)O1` (stereo not drawn), inactive: 9.82% [at 57.1 µM].
As for `CCOC(=O)Nc1ccc([As](=O)(O)O)c(O)c1`, the figure is inactive: -6.26%; as for `O=[N+]([O-])c1ccc(Nc2ccc(Oc3ccc([N+](=O)[O-])cc3[N+](=O)[O-])cc2)c([N+](=O)[O-])c1`, inactive: 1.64% [at 2.29 µM].
Consider `O=P(Nc1ccccn1)(c1cccc2ccccc12)c1cccc2ccccc12`, for which the activity change, negative = substrate turnover is inactive: 1.37% [at 57.1 µM].
Regarding `Cc1cc(SC(NC=O)C(Cl)(Cl)Cl)ncn1` (stereo not drawn), the activity change, negative = substrate turnover is inactive: -6.05% [at 57.1 µM].
As for `CCOC(=O)Nc1cccc([As](=O)(O)O)c1`, the figure is inactive: -4.37%; as for `O=C(COc1ccccc1)OC1CN2CCC1CC2` (stereo not drawn), inactive: -1.45% [at 57.1 µM]; as for `O=C(Nc1ccncc1[N+](=O)[O-])c1ccc([N+](=O)[O-])cc1[N+](=O)[O-]`, inactive: -6.45%.
As for `COP1(=S)c2c(C)nn(CCC#N)c2N=C(c2ccc(F)cc2)N1C` (stereo not drawn), the figure is inactive: 6.78%; as for `CCOP(=O)(Nc1cccc2cccnc12)OCC`, inactive: 3.85% [at 0.457 µM]; as for `CCC(C)N(CC(C)C)C(=S)SC(NC(C)=O)C(Cl)(Cl)Cl` (stereo not drawn), inactive: -9.48%.
As for `CCOC(=O)c1ccc(NC(=O)C(C)(CCl)SC)cc1` (stereo not drawn), the figure is inactive: 3.75%; as for `O=C(OC1CN2CCC1CC2)c1cccc([N+](=O)[O-])c1` (stereo not drawn), inactive: 10.6% [at 57.1 µM]; as for `O=[N+]([O-])c1cccc2n[nH]nc12`, inactive: -4% [at 57.1 µM].
As to `CC(=O)N1C2C3N(C(C)=O)C1C1N(C(C)=O)C(C(N1C(C)=O)N3C(C)=O)N2C(C)=O`, the activity change, negative = substrate turnover is inactive: 2.75%.
To `Cc1ccc(NP(=O)(Oc2ccccc2)Oc2ccccc2)nc1` belongs inactive: 8.81%.
Consider `CCc1nc2c(n1)c1c(non1O)c1c2no[n+]1[O-]`, for which the activity change, negative = substrate turnover was inactive: -15.2%.
As for `O=[N+]([O-])c1cc([N+](=O)[O-])c(CCNc2ccccc2)c([N+](=O)[O-])c1`, the figure is inactive: 7.48% [at 57.1 µM]; as for `COc1ccc(C2=NCC(CBr)S2)cc1` (stereo not drawn), inactive: 5.29% [at 57.1 µM].

(Values after PubChem BioAssay AID588456 (National Center for Advancing Translational Sciences (NCATS), 2011).)
